Laboratory results published in the DeepSol protein solubility set.

Test: soluble on expression in E. coli; label from the status in PepcDB or PDB records

Sequence	soluble on expression in E. coli
GTEPTTAFNLFVGNLNFNKSAPELKTGISDVFAKNDLAVVDVRIGMTRKFGYVDFESAEDLEKALELTGLKVFGNEIKLEKPKGKDSKKERDARTLLAKNLPYKVTQDELKEVFEDAAEIRLVSKDGKSKGIAYIEFKTEADAEKTFEEKQGTEIDGRSISLYYTGEPKGEGLEHHHHHH	soluble
HHHHHHHHHHMEELNIDFDVFKKRIELLYSKYNEFEGSPNSLLFVLGSSNAENPYQKTTILHNWLLSYEFPATLIALVPGKVIIITSSAKAKHLQKAIDLFKDPESKITLELWQRNNKEPELNKKLFDDVIALINSAGKTVGIPEKDSYQGKFMTEWNPVWEAAVKENEFNVIDISLGLSKVWEVKDVNEQAFLSVSSKGSDKFMDLLSNEMVRAVDEELKITNAKLSDKIENKIDDVKFLKQLSPDLSALCPPNYKFNFDLLDWTYSPIIQSGKKFDLRVSARSTNDQLYGNGCILASCGIRYNNYCSNITRTFLIDPSEEMANNYDFLLTLQKEIVTNILKPGRTPKEVYESVIEYIEKTKPELVPNFTKNIGSLIGLEFRDSNFILNVKNDYRKIQRGDCFNISFGFNNLKDSQSANNYALQLADTVQIPLDETEPPRFLTNYTKAKSQISFYFNNEEEDNNKKKSSPATKVPSKPDRNSKILRTKLRGEARGGAEDAQKEQIRKENQKKLHEKLEKNGLLRFSAADANGPDSEPRQYFKKYESYVRDSQLPTNIRDLRIHVDWKSQTIILPIYGRPVPFHINSYKNGSKNEEGEYTYLRLNFNSPGSSGGISKKVEELPYEESADNQFVRSITLRSKDGDRMSETFKQIADLKKEATKREQERKALADVVQQDKLIENKTGRTKRLDQIFVRPNPDTKRVPSTVFIHENGIRFQSPLRTDSRIDILFSNIKNLIFQSCKGELIVVIHIHLKNPILMGKKKIQDVQFYREASDMSVDETGGGRRGQSRFRRYGDEDELEQEQEERRKRAALDKEFKYFADAIAEASNGLLTVENTFRDLGFQGVPNRSAVFCMPTTDCLVQLIEPPFLVINLEEVEICILERVQFGLKNFDMVFVYKDFNKPVTHINTVPIESLDFLKQWLTDMDIPYTVSTINLNWATIMKSLQDDPYQFFLDGGWNFLATGSDDEASDESEEEVSEYEASEDDVSDESAFSEDEEGSEVDDDISGDESEDYTGDESEEGEDWDELEKKAARADRGANFRD	not soluble
